{
  "sequences": {"note": "Sequences of proteins named here, by UniProt entry; tags and fusion partners are left off. A change or cut given only in a name is not applied to a line headed by its entry.", "UniProt O14920": "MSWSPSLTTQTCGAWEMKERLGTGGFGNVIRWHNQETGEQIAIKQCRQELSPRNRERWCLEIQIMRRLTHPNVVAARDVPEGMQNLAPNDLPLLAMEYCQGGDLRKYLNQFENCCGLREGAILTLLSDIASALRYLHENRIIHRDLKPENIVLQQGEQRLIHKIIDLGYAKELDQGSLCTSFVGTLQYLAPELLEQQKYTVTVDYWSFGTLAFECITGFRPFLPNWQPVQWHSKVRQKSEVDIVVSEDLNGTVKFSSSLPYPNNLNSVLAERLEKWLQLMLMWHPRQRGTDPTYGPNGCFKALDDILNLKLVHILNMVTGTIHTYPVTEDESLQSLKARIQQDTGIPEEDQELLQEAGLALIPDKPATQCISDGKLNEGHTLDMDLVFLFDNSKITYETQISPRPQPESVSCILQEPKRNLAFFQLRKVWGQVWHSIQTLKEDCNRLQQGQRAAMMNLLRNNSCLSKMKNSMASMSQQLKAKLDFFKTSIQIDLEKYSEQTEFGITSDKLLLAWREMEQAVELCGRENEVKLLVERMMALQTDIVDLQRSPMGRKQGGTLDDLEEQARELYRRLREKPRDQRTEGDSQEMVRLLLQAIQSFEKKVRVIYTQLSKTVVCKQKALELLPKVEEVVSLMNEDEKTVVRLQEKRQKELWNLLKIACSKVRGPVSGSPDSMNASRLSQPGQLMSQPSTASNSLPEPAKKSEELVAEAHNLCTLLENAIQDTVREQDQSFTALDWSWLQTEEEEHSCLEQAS", "UniProt O15111": "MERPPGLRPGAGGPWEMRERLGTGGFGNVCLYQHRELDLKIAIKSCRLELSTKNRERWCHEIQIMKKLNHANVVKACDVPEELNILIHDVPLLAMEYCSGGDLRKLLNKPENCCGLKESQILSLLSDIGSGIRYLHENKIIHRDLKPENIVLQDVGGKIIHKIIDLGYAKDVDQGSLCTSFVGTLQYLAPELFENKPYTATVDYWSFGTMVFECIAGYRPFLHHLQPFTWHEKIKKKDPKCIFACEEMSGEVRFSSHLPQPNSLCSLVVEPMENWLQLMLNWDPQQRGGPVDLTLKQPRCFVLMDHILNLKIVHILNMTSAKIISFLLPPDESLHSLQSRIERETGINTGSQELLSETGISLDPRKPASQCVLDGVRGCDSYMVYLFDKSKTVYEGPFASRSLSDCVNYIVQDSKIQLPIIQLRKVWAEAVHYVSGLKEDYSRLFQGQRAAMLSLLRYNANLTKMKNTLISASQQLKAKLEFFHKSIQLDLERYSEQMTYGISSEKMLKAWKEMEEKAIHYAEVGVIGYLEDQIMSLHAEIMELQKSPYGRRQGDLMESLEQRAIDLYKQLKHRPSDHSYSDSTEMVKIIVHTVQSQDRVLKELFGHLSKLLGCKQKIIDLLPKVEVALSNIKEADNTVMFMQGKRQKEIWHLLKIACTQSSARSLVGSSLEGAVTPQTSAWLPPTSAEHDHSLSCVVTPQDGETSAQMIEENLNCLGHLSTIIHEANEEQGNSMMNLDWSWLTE"},
  "source": "patent US7285560B2",
  "about": "“Indole derivatives or benzimidazole derivatives for modulating IκB kinase” (Sanofi-Aventis Deutschland GmbH, priority 2002, dated 2007)",
  "key": {"protein tyrosine kinase": {"tested_on": "protein tyrosine kinase", "experiment": "Protein tyrosine kinase assay (Upstate test kit)", "format": "biochemical", "experimental": "As examples of the specificities of the IκB kinase inhibitors which had been discovered, their IC50 values were determined in the case of the kinase enzyme protein tyrosine kinase.\nProtein tyrosine kinase activity was determined using the appropriate test kit from Upstate Biotechnologie in accordance with the manufacturer's instructions and at an ATP concentration of 50 μM. As a difference from the manufacturer's method, Multi-Screen plates (Millipore; phosphocellulose MS-PH, cat. MAPHNOB10, or Durapore PVDF, cat. MADVNOB 50), were used, together with the appropriate exhaust system, instead of phospho-cellulose filters. Poly (Glu, Tyr 4:1) (Sigma cat. P0275) was used as the test kit substrate at a test concentration of 1 mg/ml. The plates were then measured in a Wallac MicroBeta scintillation counter. 100 μM of the test substance were used in each case.\nThe test substance was tested in a duplicate determination. The IC50 calculations were performed using the GraFit 3.0 software package."}, "IκB kinase": {"target": "T1, IκB kinase (Homo sapiens, UniProt O14920+O15111)", "T1 construct": "endogenous in cells; host or cells: HeLa S3 (S100 extract; ammonium sulfate cut, Superose-6 fractions at 670 kDa)", "experiment": "IκB kinase ELISA", "format": "biochemical"}},
  "data": [
    {"smiles": "CNc1nccc(-c2cc3cc(C(=O)N[C@@H](CN(c4ccccc4)c4ccccc4)c4n[nH]c(=O)o4)ccc3[nH]2)n1", "note": "[Example 28, N-[(S)-2-Diphenylamino-1-(5-oxo-4,5-dihydro[1,3,4]oxadiazol-2-yl)ethyl]-2-(2-methylaminopyrimidin-4-yl)-1H-indole-5-carboxamide]", "values": [
      {"measurement": "Specificity ratio", "setting": "protein tyrosine kinase; IC50 protein tyrosine kinase relative to IκB kinase, > denotes better than", "value": 1650},
      {"measurement": "ratio of the IC50 values for protein tyrosine kinase relative to IκB kinase", "setting": "protein tyrosine kinase; for the comparison compound the IκB kinase IC50 is taken from WO 01/30774", "value": 1650},
      {"measurement": "IC50", "setting": "IκB kinase", "value": 50, "unit": "nM"}
    ]}
  ]
}
